Test results from patent publication US5112845A, “Alpha-heterocycle substituted tolunitriles” (Ciba-Geigy Corporation, priority 1990, dated 1992).

Test system: estrogen synthesis
Test: in vivo inhibition of aromatase activity: inhibition of estrogen synthesis in rats (ovarian estrogen content)
Conditions: Rattus norvegicus, po, read-out: dose at which estrogen synthesis is inhibited

Structure (SMILES): N#Cc1ccc(C(c2ccc(C#N)cc2)n2ccnc2)cc1 [Example 2a, 4-[alpha-(4-cyanophenyl)-1-imidazolylmethyl]-benzonitrile]
- minimal effective dose: ~1.5 µg/kg
